Reference: patent US20240009195A1, “NOVEL USES” (INTRA-CELLULAR THERAPIES, INC., priority 2020, published 2024)

Sequences of proteins named here, by UniProt entry; tags and fusion partners are left off. A change or cut given only in a name is not applied to a line headed by its entry.
UniProt Q08499: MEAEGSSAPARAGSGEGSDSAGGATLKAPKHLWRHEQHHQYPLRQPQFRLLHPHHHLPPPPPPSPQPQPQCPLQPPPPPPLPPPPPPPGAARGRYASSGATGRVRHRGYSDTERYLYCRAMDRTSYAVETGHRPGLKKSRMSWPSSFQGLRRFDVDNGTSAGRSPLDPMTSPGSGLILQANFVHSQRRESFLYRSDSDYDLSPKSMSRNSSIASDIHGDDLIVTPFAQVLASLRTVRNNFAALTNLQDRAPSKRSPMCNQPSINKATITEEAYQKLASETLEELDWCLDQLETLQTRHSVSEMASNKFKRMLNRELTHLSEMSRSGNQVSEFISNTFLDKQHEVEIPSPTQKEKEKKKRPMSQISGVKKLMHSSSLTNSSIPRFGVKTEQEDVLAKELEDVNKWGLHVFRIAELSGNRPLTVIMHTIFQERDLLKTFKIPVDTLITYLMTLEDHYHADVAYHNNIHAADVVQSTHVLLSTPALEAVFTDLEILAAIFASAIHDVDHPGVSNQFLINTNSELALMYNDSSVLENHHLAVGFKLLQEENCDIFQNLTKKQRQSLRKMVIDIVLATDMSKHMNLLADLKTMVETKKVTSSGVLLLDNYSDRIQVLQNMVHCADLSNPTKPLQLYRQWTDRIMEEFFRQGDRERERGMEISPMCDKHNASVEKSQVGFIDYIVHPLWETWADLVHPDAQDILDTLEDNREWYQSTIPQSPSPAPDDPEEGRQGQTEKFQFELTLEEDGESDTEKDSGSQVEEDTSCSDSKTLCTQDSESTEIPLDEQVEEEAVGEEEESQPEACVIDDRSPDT

Legend:
hPDE4D = hPDE4D (Homo sapiens, UniProt Q08499); assay: biochemical
hPDE1B = hPDE1B (Homo sapiens, UniProt Q01064); assay: biochemical

IC50 (hPDE4D): 36 nM | IC50 (hPDE1B): 0.379 nM
Structure (SMILES): CN1C(=O)c2c(nn(Cc3ccc(-c4cccc(F)n4)cc3)c2Nc2ccccc2)N2C1=N[C@@H]1CCC[C@@H]12 [Compound 1]
